Reference: PMC4019984, “Kinase and channel activity of TRPM6 are co-ordinated by a dimerization motif and pocket interaction” (Biochemical Journal, 2014)

Tests used:
[1] = system: GST-tagged TRPM6-(1730–end) L1743A; assay: Fluorescence polarization binding assay, L1743A mutant; set-up: species or system human; details: 100 nM labelled peptide, L1743A dimerization pocket mutant, pH 7.5, room temperature
Procedure: (§1) The peptides used for the assay contained a C-terminal linker leading to the peptides […] (wild-type) and […] (mutant). The peptides were labelled with Lumio Green (Invitrogen) following the manufacturer's protocol. Fluorescence polarization measurements were performed at room temperature in buffer containing 25 mM Tris/HCl (pH 7.5), 200 mM NaCl and 5 mM 2-mercaptoethanol. Binding assays were performed by combining 100 nM labelled peptide with increasing concentrations of TRPM6 kinase, in a total volume of 30 μl of buffer, and end-point polarization measurements were made using the BMG PheraStar plate reader. The polarization values were measured at an excitation wavelength of 485 nm and an emission wavelength of 538 nm, and were corrected for fluorescent probe alone. At least ten data points were measured for each curve, and each data point was measured in duplicate. Data were analysed using GraphPad Prism 5 and curve-fitting of the data from two independent experiments was performed with one-site specific binding with Hill slope [model Y=BmaxX^h/(Kd^h+X^h)] to determine Kd values. […]
(§2) Figure 3 Analysis of the dimerization pocket residues (A) Structural model of TRPM6 based on TRPM7 α-kinase depicting the binding of Leu^1718 and Leu^1721 to other residues in the α-kinase domain. […] The samples were analysed by immunoblotting with anti-GST antibody (top panel). […]

[2] = system: GST-tagged TRPM6-(1730–end) L1919Q; assay: Fluorescence polarization binding assay, L1919Q mutant; set-up: species or system human; details: 100 nM labelled peptide, L1919Q dimerization pocket mutant, pH 7.5, room temperature
Procedure: as §1, §2

[3] = molecular target: T1, GST-tagged TRPM6-(1730–end) (Homo sapiens, UniProt Q9BX84); assay: Fluorescence polarization binding assay, TRPM6-(1730–end); details: 100 nM labelled peptide, pH 7.5, room temperature
T1 construct: E. coli-purified GST-tagged TRPM6-(1730–end); made in house; host or cells: E. coli BL21
T1 sequence (Q9BX84 1730-2022 limits assumed): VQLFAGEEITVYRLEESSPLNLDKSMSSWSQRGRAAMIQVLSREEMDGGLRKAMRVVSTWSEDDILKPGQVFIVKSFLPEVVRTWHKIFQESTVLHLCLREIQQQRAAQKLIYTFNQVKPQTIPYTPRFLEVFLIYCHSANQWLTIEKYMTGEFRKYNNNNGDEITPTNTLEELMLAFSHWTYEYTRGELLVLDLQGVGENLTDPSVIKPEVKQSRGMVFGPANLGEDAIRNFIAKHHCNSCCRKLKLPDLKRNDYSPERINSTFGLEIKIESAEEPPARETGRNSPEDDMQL
Procedure: The peptides used for the assay contained a C-terminal linker leading to the peptides […] (wild-type) and […] (mutant). The peptides were labelled with Lumio Green (Invitrogen) following the manufacturer's protocol. Fluorescence polarization measurements were performed at room temperature in buffer containing 25 mM Tris/HCl (pH 7.5), 200 mM NaCl and 5 mM 2-mercaptoethanol. Binding assays were performed by combining 100 nM labelled peptide with increasing concentrations of TRPM6 kinase, in a total volume of 30 μl of buffer, and end-point polarization measurements were made using the BMG PheraStar plate reader. The polarization values were measured at an excitation wavelength of 485 nm and an emission wavelength of 538 nm, and were corrected for fluorescent probe alone. At least ten data points were measured for each curve, and each data point was measured in duplicate. Data were analysed using GraphPad Prism 5 and curve-fitting of the data from two independent experiments was performed with one-site specific binding with Hill slope [model Y=BmaxX^h/(Kd^h+X^h)] to determine Kd values.
(Figure 2A). We next utilized fluorescence polarization technology, a sensitive method to evaluate interactions between proteins and peptides. […]

Compound: CC[C@H](C)[C@H](NC(=O)[C@H](C)NC(=O)[C@H](CO)NC(=O)[C@H](Cc1ccc(O)cc1)NC(=O)[C@H](Cc1c[nH]cn1)NC(=O)[C@H](Cc1c[nH]cn1)NC(=O)[C@H](Cc1c[nH]cn1)NC(=O)[C@@H]1CCCN1C(=O)[C@H](CCC(=O)O)NC(=O)[C@H](CCC(N)=O)NC(=O)[C@@H]1CCCN1C(=O)[C@H](CO)NC(=O)[C@H](CCCCN)NC(=O)[C@@H](N)CC(C)C)C(=O)N[C@@H](CCC(=O)O)C(=O)N[C@@H](CCCNC(=N)N)C(=O)N[C@@H](CC(N)=O)C(=O)N[C@@H](CC(N)=O)C(=O)N[C@@H](CC(C)C)C(=O)N[C@@H](CCSC)C(=O)N[C@@H](CCCNC(=N)N)C(=O)N[C@@H](CC(C)C)C(=O)N[C@@H](CO)C(=O)N[C@@H](CCC(N)=O)C(=O)N[C@H](C(=O)N[C@H](C(=O)N1CCC[C@H]1C(=O)N[C@@H](Cc1ccccc1)C(=O)N[C@H](C(=O)N1CCC[C@H]1C(=O)N[C@H](C(=O)N[C@@H](CCC(N)=O)C(=O)N[C@@H](CC(C)C)C(=O)N[C@@H](Cc1ccccc1)C(=O)N[C@@H](C)C(=O)NCC(=O)N[C@@H](CCC(=O)O)C(=O)N[C@@H](CCC(=O)O)C(=O)N[C@H](C(=O)N[C@H](C(=O)N[C@H](C(=O)NCC(=O)NCC(=O)N[C@H]1CS[As]2SC[C@H](NC1=O)C(=O)N1CCC[C@H]1C(=O)NCC(=O)N[C@H]1CS[As](SC[C@@H](C(=O)O)NC1=O)c1c(O)ccc3c1Oc1c(ccc(O)c12)C31OC(=O)c2ccccc21)C(C)C)[C@@H](C)O)[C@@H](C)CC)C(C)C)[C@@H](C)O)[C@@H](C)CC)[C@@H](C)O (stereo partly shown)
- interaction with fluorescently labelled dimerization motif peptide [1]: inhibited interaction
- interaction with fluorescently labelled dimerization motif peptide [2]: inhibited interaction
- fluorescence polarization increase (binding) ([3]; increasing concentrations of TRPM6-(1730–end)): dose-dependent increase in fluorescence polarization
- Hill slope ([3]; variable slope model, one-site-binding equation): 1.0
